Measurements reported in the OPERA property sets (Mansouri et al. 2018).

Conditions: for melting point / boiling point / ready biodegradability / log10 vapour pressure (mmHg): experimental values compiled from the literature

| Structure (SMILES) | melting point [°C] | boiling point [°C] | ready biodegradability | log10 vapour pressure (mmHg) | further results |
| --- | --- | --- | --- | --- | --- |
| O=[N+]([O-])c1cccc([N+](=O)[O-])c1O | 63.5 | – | – | – | – |
| O=[N+]([O-])c1cc([N+](=O)[O-])c(Cl)c([N+](=O)[O-])c1 | 83 | – | – | – | – |
| Cc1ccc([N+](=O)[O-])c([N+](=O)[O-])c1 | 58.3 | 284 | not readily biodegradable | – | log10 BCF (fish): 0.48; log10 biotransformation half-life (days) (fish): -1.4 |
| CCOC(=O)Cl | – | – | readily biodegradable | 1.35 | – |
| CC(C)([N+](=O)[O-])[N+](=O)[O-] | 54 | 185 | – | – | – |
| O=[N+]([O-])c1ccc([N+](=O)[O-])c(O)c1 | – | – | – | -3.91 | – |
